Measured values as given in EP0354046A2, “Herbicidal method using bromoxynil” (MAY & BAKER LIMITED, priority 1988, dated 1990).

Test system: maize var. Irla
Experiment: Glasshouse experiment 4, percentage phytotoxicity on crop after 11 days
Details: Compound (74 or 99) 0 g/ha, Bromoxynil 35 g/ha
Experimental: Agricultural surfactant ('Agral') was added to the spray dilutions to give 0.2%v/v concentration.
After spraying the pots were arranged in randomised blocks in a glasshouse and water as necessary. After 11 days the plants were assessed for percentage phytotoxicity (reduction in green area compared with unsprayed plants (0 = no effect 100 = complete destruction).
E = X + Y […] where E, X and Y are percentage phytotoxicity.
The ED values were then used to plot an isobole for each mixture according to the method of P.M.L. Tammes op cit.

N#Cc1cc(Br)c(O)c(Br)c1 [Bromoxynil, 3,5-dibromo-4-hydroxybenzonitrile]
% crop phytotoxicity Maize (3-4 leaves): 0%
